The values below come from patent publication US8802688B2, “Substituted acetyl-coa carboxylase inhibitors” (Pfizer Inc., priority 2011, dated 2014).

Amino acid sequences for entries named in this document (tags omitted).
UniProt O00763, whole entry V2141I: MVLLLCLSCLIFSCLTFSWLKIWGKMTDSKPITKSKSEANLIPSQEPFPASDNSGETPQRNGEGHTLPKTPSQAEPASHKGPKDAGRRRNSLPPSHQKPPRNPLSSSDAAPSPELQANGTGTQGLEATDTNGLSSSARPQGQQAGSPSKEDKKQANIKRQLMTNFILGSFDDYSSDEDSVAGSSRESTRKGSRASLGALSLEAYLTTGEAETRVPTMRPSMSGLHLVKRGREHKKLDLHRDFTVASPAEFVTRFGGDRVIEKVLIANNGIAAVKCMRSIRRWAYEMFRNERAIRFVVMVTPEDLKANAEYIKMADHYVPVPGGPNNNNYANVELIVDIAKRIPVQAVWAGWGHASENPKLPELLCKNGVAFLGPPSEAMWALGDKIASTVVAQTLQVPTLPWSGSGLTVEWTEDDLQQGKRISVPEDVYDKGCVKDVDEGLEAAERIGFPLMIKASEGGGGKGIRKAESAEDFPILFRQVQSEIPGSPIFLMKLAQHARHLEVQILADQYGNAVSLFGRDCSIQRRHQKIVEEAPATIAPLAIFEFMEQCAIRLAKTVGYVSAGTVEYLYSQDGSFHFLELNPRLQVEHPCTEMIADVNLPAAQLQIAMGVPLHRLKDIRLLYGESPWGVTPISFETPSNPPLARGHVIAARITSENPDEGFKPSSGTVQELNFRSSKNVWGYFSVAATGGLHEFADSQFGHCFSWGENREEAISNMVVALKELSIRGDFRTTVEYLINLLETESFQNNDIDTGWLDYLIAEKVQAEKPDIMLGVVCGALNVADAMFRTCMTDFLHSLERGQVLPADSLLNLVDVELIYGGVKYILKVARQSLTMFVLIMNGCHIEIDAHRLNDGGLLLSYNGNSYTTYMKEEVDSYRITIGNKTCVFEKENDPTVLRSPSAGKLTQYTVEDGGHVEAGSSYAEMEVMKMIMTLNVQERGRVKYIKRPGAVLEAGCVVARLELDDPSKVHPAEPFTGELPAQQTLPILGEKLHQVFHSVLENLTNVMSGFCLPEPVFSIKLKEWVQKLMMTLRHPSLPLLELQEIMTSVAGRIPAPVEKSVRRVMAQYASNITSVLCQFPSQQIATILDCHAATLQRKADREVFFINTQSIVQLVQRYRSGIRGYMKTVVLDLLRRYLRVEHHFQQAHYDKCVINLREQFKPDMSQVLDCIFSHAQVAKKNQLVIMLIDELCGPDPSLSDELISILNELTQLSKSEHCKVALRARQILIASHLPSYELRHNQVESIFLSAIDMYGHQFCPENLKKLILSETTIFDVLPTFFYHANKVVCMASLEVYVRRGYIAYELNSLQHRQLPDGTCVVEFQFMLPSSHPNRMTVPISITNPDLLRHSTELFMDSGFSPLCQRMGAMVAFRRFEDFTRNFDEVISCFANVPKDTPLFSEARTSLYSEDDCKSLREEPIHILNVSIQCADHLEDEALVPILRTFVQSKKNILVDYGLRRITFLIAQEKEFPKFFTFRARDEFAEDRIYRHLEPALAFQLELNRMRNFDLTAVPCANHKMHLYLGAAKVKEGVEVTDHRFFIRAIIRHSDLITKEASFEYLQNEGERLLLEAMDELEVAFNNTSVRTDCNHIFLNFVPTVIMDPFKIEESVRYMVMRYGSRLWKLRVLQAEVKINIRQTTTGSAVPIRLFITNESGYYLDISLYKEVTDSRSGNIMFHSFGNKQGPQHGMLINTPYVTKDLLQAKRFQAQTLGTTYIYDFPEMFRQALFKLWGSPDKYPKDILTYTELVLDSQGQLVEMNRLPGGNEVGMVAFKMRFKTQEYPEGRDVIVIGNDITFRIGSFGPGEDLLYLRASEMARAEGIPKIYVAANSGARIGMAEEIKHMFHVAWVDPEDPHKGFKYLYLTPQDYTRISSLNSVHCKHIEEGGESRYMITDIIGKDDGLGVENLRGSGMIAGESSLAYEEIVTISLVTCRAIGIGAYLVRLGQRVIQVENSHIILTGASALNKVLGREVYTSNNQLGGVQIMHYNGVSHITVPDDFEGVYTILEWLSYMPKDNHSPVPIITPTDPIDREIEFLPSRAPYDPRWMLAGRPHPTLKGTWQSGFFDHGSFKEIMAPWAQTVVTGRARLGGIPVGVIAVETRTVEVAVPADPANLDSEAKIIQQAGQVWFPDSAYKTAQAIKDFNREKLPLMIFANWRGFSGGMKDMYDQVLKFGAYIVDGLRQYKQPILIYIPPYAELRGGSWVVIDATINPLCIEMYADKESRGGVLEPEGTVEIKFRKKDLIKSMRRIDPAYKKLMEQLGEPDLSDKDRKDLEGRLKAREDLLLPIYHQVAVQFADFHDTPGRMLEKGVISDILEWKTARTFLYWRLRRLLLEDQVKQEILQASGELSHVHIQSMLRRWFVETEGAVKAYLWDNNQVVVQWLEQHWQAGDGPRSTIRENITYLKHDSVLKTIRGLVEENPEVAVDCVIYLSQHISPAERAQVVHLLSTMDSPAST

Experiment [1] deals with recombinant human ACC1 (rhACC1) (Homo sapiens, UniProt Q13085, DEL44-44). Description: recombinant hACC1 Transcreener ADP detection FP assay. Conditions: read-out: hACC1 IC50, 50 μM ATP, 30 μM acetyl-CoA.
Experiment [2] concerns the target recombinant human ACC2 (rhACC2) (Homo sapiens, UniProt O00763, V2141I). Description: recombinant hACC2 Transcreener ADP detection FP assay. Conditions: read-out: hACC2 IC50, 50 μM ATP, 30 μM acetyl-CoA.

As for `CC(C)(C)n1cc2c(n1)C(=O)CC1(CCN(C(=O)c3ccc4[nH]nc(C(N)=O)c4c3)CC1)C2`, the IC50 in experiment [1] was determined as 3.8 nM; in experiment [2] it was 1.3 nM.

Take `CC(C)(C)n1cc2c(n1)C(=O)CC1(CCN(C(=O)c3ccc4c(C(N)=O)c[nH]c4c3)CC1)C2`: the values for the IC50 in experiment [1] and in experiment [2] were 6.5 nM and 1.3 nM, respectively.

What is called IC50 is the concentration at which inhibition is half-maximal.
